From BindingDB's records for 16140009 (Universit&#233, 2005)

Molecular target: Sigma non-opioid intracellular receptor 1 (Homo sapiens, UniProt Q99720)
Experiment: Inhibitory activity against Opioid receptor sigma 1 in guinea pig cerebral cortex using [3H](+)-pentazocine as radio ligand at pH 7.5 for 150 min at 22 C

O=c1n2c(c(O)n1C1CCN(Cc3ccccc3)CC1)Cc1ccccc1C2
IC50: 2.4 nM
